Results as given in publication PMC9421653 (Journal of Medicinal Chemistry, 2022).
Read-outs that look alike come from different tables or passages of the source.

Amino acid sequences for entries named in this document (tags omitted). A change or cut given only in a name is not applied to a line headed by its entry.
UniProt P04899: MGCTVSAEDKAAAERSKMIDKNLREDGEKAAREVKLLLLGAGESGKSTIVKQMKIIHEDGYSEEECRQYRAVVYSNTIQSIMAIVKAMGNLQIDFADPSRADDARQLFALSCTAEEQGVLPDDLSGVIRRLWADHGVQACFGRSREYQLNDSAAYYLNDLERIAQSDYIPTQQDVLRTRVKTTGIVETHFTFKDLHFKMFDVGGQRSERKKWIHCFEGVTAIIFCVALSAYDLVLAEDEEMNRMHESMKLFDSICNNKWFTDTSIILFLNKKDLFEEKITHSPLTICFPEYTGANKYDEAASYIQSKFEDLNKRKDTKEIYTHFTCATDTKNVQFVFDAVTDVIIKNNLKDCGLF
UniProt Q9NQS5: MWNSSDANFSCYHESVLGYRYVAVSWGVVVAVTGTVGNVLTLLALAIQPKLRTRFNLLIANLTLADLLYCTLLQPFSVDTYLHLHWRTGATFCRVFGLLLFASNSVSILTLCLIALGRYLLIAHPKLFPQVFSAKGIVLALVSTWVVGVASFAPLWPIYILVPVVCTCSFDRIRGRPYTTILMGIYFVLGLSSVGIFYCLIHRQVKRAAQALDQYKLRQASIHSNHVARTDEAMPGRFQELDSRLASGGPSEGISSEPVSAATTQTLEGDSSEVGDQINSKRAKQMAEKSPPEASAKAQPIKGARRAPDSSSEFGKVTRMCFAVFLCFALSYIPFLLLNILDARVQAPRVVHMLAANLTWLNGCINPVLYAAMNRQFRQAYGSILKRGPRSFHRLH

Target: T1, human GPR84 (Homo sapiens, UniProt P04899+Q9NQS5)
T1 construct: expressed in transfected cells; host or cells: Flp-In T-REx 293 cells, doxycycline-induced; membrane preparations
Type: biochemical

Compound	LLE (LLE = pIC50 – CLog P)	LLE (LLE = pIC50 – Log D7.4)
O=C(NCCO)c1ccc(-c2nnc(Cc3c[nH]c4cnccc34)nc2-c2ccccc2)cc1 [Compound 70, 4-(3-((1H-Pyrrolo[2,3-c]pyridin-3-yl)methyl)-5-phenyl-1,2,4-triazin-6-yl)-N-(2-hydroxyethyl)benzamide]	5.06	
CNC(=O)c1ccc(-c2nc(Cc3c[nH]c4ccncc34)nnc2-c2ccccc2)cc1 [Compound 71, 4-(3-((1H-Pyrrolo[3,2-c]pyridin-3-yl)methyl)-6-phenyl-1,2,4-triazin-5-yl)-N-methylbenzamide]	3.1	
CNC(=O)c1ccc(-c2nnc(Cc3c[nH]c4ccncc34)nc2-c2ccccc2)cc1 [Compound 72, 4-(3-((1H-Pyrrolo[3,2-c]pyridin-3-yl)methyl)-5-phenyl-1,2,4-triazin-6-yl)-N-methylbenzamide]	3.81	
CNC(=O)c1ccc(-c2nnc(Cc3c[nH]c4ccccc34)nc2-c2ccccc2)cc1 [Compound 73, 4-(3-((1H-Indol-3-yl)methyl)-5-phenyl-1,2,4-triazin-6-yl)-N-methylbenzamide]	3.69	
O=C(c1ccc(-c2nnc(Cc3c[nH]c4ccccc34)nc2-c2ccccc2)cc1)N1CCOCC1 [Compound 74, (4-(3-((1H-Indol-3-yl)methyl)-5-phenyl-1,2,4-triazin-6-yl)phenyl)(morpholino)methanone]	3.91	
CN(C)CCNC(=O)c1ccc(-c2nnc(Cc3c[nH]c4ccccc34)nc2-c2ccccc2)cc1 [Compound 75, 4-(3-((1H-Indol-3-yl)methyl)-5-phenyl-1,2,4-triazin-6-yl)-N-(2-(dimethylamino)ethyl)benzamide]	1.64	
O=C(NCCO)c1ccc(-c2nnc(Cc3c[nH]c4ccccc34)nc2-c2ccccc2)cc1 [Compound 76, 4-(3-((1H-Indol-3-yl)methyl)-5-phenyl-1,2,4-triazin-6-yl)-N-(2-hydroxyethyl)benzamide]	4.53	4.37
CN1CCN(C(=O)c2ccc(-c3nnc(Cc4c[nH]c5ccccc45)nc3-c3ccccc3)cc2)CC1 [Compound 77, (4-(3-((1H-Indol-3-yl)methyl)-5-phenyl-1,2,4-triazin-6-yl)phenyl)(4-methylpiperazin-1-yl)methanone]	2.11	
CC(=O)NCCNC(=O)c1ccc(-c2nnc(Cc3c[nH]c4ccccc34)nc2-c2ccccc2)cc1 [Compound 79, 4-(3-((1H-Indol-3-yl)methyl)-5-phenyl-1,2,4-triazin-6-yl)-N-(2-acetamidoethyl)benzamide]	3.36	
CN1CCN(C(=O)c2ccc(-c3nnc(Cc4c[nH]c5ccccc45)nc3-c3ccccc3)cc2)CC1=O [Compound 80, 4-(4-(3-((1H-Indol-3-yl)methyl)-5-phenyl-1,2,4-triazin-6-yl)benzoyl)-1-methylpiperazin-2-one]	2.91	
NC(=O)CNC(=O)c1ccc(-c2nnc(Cc3c[nH]c4ccccc34)nc2-c2ccccc2)cc1 [Compound 81, 4-(3-((1H-Indol-3-yl)methyl)-5-phenyl-1,2,4-triazin-6-yl)-N-(2-amino-2-oxoethyl)benzamide]	3.43	
